From patent US20130142847A1, “S-ADENOSYLMETHIONINE FORMULATIONS WITH ENHANCED BIOAVAILABILITY” (Methylation Sciences, Inc., priority 2009, published 2013)
Values joined by “and” are separate entries in the source; they are usually repeats but may differ in a detail not shown here. Identical values can stand only once.

How the values were obtained:
Caco-2 cell monolayers [1] = assay: 24 hour resistance recovery test (Caco-2 cell recovery post treatment); type: cell-based, human; conditions: SAMe 2 mM alone, listed as SAMe control
Procedure: As part of these in vitro studies, the degree of Caco-2 cell recovery (as observed by degree of permeability and cell attachment 24 hours post treatment with each tight junction modulator) was also investigated. This 24 hour resistance recovery test is an indirect measure of epithelial cell disruption and data supporting a trend toward less in vitro disruption may be associated with less impact in vivo.

Caco-2 cell monolayers [2] = assay: Caco-2 permeability of SAMe in the presence of tight junction modulators (Examples 3a, 3c)
Caco-2 cell monolayers [3] = assay: Permeability of SAMe across Caco-2 cell monolayers (Example 3); conditions: for Papp_a-b Apical to Basal: apical to basolateral; for Papp_b-a Basal to Apical: basolateral to apical
[4] = HBSS pH 7.4, 120 minute incubation, SAMe salt 2 mM

**Q.** How did the “TEER Resist. 24 hour post assay” value (Caco-2 cell monolayers [1]) turn out when “adenosylmethionine disulfate-p-toluenesulfonate [SAMe disulfate tosylate]” was run?
**A.** The value was 2280 ohms and 2181 ohms and 1440 ohms and 1975 ohms and 1871 ohms and 1740 ohms.

**Q.** And the “Fold Transport Increase” value (Caco-2 cell monolayers [2]; SAMe 2 mM alone (Table 7))?
**A.** The value was 1X.

**Q.** And the “Fold Transport Increase” value (Caco-2 cell monolayers [2]; SAMe 2 mM alone, run 2)?
**A.** Its value is 1X.

**Q.** What about the “Permeability Coefficient” value (Caco-2 cell monolayers [2]; SAMe 2 mM alone, run 2) of the same substance?
**A.** The value was 1.4e-07 cm/s.

**Q.** And the “Fold Transport Increase” value (Caco-2 cell monolayers [2]; SAMe 2 mM alone, run 3)?
**A.** The value was 1X.

**Q.** And the “Permeability Coefficient” value (Caco-2 cell monolayers [2]; SAMe 2 mM alone, run 3)?
**A.** The value was 1.6e-06 cm/s.

**Q.** And the “Fold Transport Increase” value (Caco-2 cell monolayers [2]; SAMe 2 mM alone, run 4)?
**A.** The value was 1X.

**Q.** What about the “Permeability Coefficient” value (Caco-2 cell monolayers [2]; SAMe 2 mM alone, run 4) of the same substance?
**A.** The value was 1.6e-06 cm/s.

**Q.** What about the “Papp_a-b Apical to Basal” value (Caco-2 cell monolayers [3]; Calcium-free medium) of the same substance?
**A.** The value was 9.6e-06 cm/s.

**Q.** What about the “Papp_b-a Basal to Apical” value (Caco-2 cell monolayers [3]; Calcium-free medium) of the same substance?
**A.** Its value is 6.48e-06 cm/s.

**Q.** And the “Papp_a-b Apical to Basal” value (Caco-2 cell monolayers [3]; [4])?
**A.** Its value is 4.1e-07 cm/s.

**Q.** And the “Papp_b-a Basal to Apical” value (Caco-2 cell monolayers [3]; [4])?
**A.** The value was 5e-07 cm/s.
